For one compound, Kb results are on record in patent US5064850A, “Dihydro-3,3-diphenyl-5-(1H-pyrazol-1-ylmethyl-2(3H)-furanone and dihydro-5-((substituted-1H-pyrazol-1-yl)methyl)-3,3-diphenyl-2(3H)-furan one derivatives” (Marion Merrell Dow Inc., priority 1991, dated 1991).

Chains of the proteins cited; added tags and fusions are not shown. Residues count along the entry.
UniProt H0W1Z3, 1-590: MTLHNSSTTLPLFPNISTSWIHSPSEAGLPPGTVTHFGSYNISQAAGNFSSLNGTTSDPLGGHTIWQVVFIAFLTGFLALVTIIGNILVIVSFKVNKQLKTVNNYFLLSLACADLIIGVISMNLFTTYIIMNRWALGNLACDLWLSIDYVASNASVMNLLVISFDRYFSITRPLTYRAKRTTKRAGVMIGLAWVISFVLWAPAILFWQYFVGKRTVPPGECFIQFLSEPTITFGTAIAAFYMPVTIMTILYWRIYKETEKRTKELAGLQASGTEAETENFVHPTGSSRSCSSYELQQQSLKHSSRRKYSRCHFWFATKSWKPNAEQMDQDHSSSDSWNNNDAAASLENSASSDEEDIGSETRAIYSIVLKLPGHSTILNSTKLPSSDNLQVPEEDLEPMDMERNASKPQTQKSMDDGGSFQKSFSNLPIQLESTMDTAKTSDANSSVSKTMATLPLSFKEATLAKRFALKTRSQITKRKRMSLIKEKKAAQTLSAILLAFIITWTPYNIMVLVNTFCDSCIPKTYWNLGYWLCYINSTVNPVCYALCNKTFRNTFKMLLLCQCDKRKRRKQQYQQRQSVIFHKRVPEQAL

By Kb is commonly meant the equilibrium dissociation constant of an antagonist, usually derived from a functional assay.

In this experiment the target is T1, postsynaptic muscarinic cholinergic receptors on intestinal (ileal-longitudinal) smooth muscle (Cavia porcellus, UniProt H0W1Z3).
T1 construct: The longitudinal muscle, with the myenteric plexus attached, is separated from the underlying circular muscle; from tissue; host or cells: guinea pig ileum, longitudinal muscle strip with myenteric plexus attached
Briefly: Antimuscarinic Test Protocol: antagonism of carbachol-induced contraction of ileum strips (Table 1). Format: cell-based, guinea pig. Particulars: carbachol as agonist, read-out: Anti-muscarinic Activity Kb. As for the experimental part: Antimuscarinic Test Protocol.
Male albino guinea pigs are killed by decapitation or cervical dislocation. The cavity is opened and the small intestine is removed, with about 10 cm of the terminal ileum being discarded. The intestine is placed in a Petri dish that contains Tyrodes solution (137 mM NaCl, 2.78 mM KCl, 1.8 mM CaCl2.2H2 O, 1.1 mM MgCl2.6H2 O, 0.4 mM […], 11.8 mM NaHCO3, 5.6 mM dextrose) and cut into 3-4 cm segments. The segments are preferentially taken from the aboral end of the ileum. Each segment is carefully stretched onto a glass rod 6 mm in diameter and the remaining mesenteric tissue is cut away. The longitudinal muscle, with the myenteric plexus attached, is separated from the underlying circular muscle by gently stroking with a cotton-tipped applicator soaked in Tyrodes solution on a tangent away from the shallow longitudinal incisions made parallel to the mesenteric attachment. […]
Appropriate volumes of carbachol solutions are cumulatively added to the 10 mL tissue baths to increase the concentration of carbachol in the bath step-by-step without washing out after each single dose. […] Antagonism of carbachol responses in the presence of antagonist is determined by repeating the cumulative addition procedure after the tissue has been exposed to the […] for 5 minutes. […]

In the case of `CN1[C@@H]2CC[C@H]1C[C@@H](OC(=O)C(CO)c1ccccc1)C2` (stereo partly shown) [Atropine, reference compound], the Kb came out at 1.7 nM.
